This note sets out measurements from IntAct's records for PubMed 16901789.

The chains are these.
B1: E3 ubiquitin-protein ligase RNF5 (Homo sapiens), Q99942 (parent)
chain: MAAAEEEDGGPEGPNRERGGAGATFECNICLETAREAVVSVCGHLYCWPCLHQWLETRPERQECPVCKAGISREKVVPLYGRGSQKPQDPRLKTPPRPQGQRPAPESRGGFQPFGDTGGFHFSFGVGAFPFGFFTTVFNAHEPFRRGTGVDLGQGHPASSWQDSLFLFLAIFFFFWLLSI

The test covers variants of B1. The settings on record: with cftr_human CFTR.
Take C42S: the “effect of a mutation on the interaction” value is reported as “increasing interaction”.
